Results from patent publication US11718596B2, “Amyloid targeting agents and methods of using the same” (The Regents of the University of California, priority 2014, dated 2023).

By UniProt entry, the sequences of proteins in these tests, tags left out. Residues count along the entry.
UniProt P05067, 672-713 limits assumed: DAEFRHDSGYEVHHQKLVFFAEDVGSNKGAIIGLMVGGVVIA

Target: amyloid deposits in the retina (Homo sapiens, UniProt P05067)
Test: Ex vivo retina analysis of J20 mice after systemic (tail vein) dosing
Conditions: J20 mouse, 30 minutes prior to sacrifice, co-localizes with anti-Aβ antibody

COCCOCCOCCNC(=O)/C(C#N)=C/c1ccc2cc(N3CCCCC3)ccc2c1 [Compound 1, (E)-2-Cyano-N-(2-(2-(2-methoxyethoxy)ethoxy)ethyl)-3-(6-(piperidin-1-yl)naphthalen-2-yl)acrylamide] was tested, and the “staining of amyloids in the retina after in vivo systemic administration” value was “specifically stain amyloids in the retina”.
